Measurements from patent publication US10646600B2, “HER2 polypeptides useful for imaging and monitoring tumors and cancers” (GE HEALTHCARE LIMITED, priority 2013, dated 2020).
“Also recorded” adds a separate entry of the source.

Assays:
SKOV-3 xenografts = assay: PET-CT imaging and kinetic modeling, SKOV-3 xenografts; assay type: in vivo, mice
Experimental: […] To assess interaction of radiotracer with trastuzumab, SKOV-3 xenograft-bearing mice were treated with 50 mg/kg trastuzumab intraperitoneally (i.p.) 2 h prior to the scan. Animals were recovered, treated twice more with 25 mg/kg trastuzumab i.p. and re-scanned 7 days after initial dose. To investigate response to HSP90 inhibition, SKOV-3 xenograft-bearing mice were treated with 50 mg/kg NVP-AUY922 or equivalent volume of vehicle (˜5 μL/g body weight; 10% DMSO and 5% Tween-20 in PBS) q.d. i.p. for three days. 24 h after the last treatment, animals were used for PET imaging.
Mice were anesthetized through isoflurane inhalation and scanned on a dedicated small animal PET-CT scanner (Siemens Multimodality Inveon, Erlangen, Germany). Low dose CT scans were first acquired (80 kVp, 0.5 mA, 220 degree rotation, 600 ms per degree exposure time, 80 μm reconstruction pixel size) for PET attenuation correction and to obtain an anatomical reference. PET images were acquired following a bolus i.v. injection of approximately 3.7 MBq [^18F]GE-226 in the tail vein. […] The count densities were averaged for all ROIs at each time point to obtain time versus radioactivity curves (TAC). Tumor TACs were normalized to injected dose measured by a VDC-304 dose calibrator (Veenstra Instruments, Joure, Netherlands) and normalized uptake was expressed as percentage injected dose per mL tissue (NUV; % ID/mL). […]

SKOV-3 cells = assay: In vitro uptake assay in SKOV-3 cells (blocking, siRNA, drug treatment, specific activity); assay type: cell-based, human
Experimental: For siRNA-mediated HER2 knockdown, SKOV-3 cells were transfected with 25 nM scramble control (SCR; Dharmacon, Lafayette, Colo., ON-TARGETplus Non-targeting Pool, Cat. Nr: D-001810-10-05) or HER2-targeting siRNA (Invitrogen ERBB2 Silencer® Select Validated siRNA; Cat. Nr: 4457298) by reverse wet transfection with Lipofectamine RNAiMAX (Invitrogen) according to manufacturer's instructions. 3×10^5 cells were seeded in 12-well plates 48 h prior to uptake experiment. Target knockdown was verified by western blotting on cells that were transfected in parallel.
For all uptake studies in response to drug treatment, 2.5×10^5 SKOV-3 cells were seeded in complete medium 48 h prior to uptake experiments. Cells were incubated with indicated doses of NVP-AUY922 (LC Laboratories, Woburn, Mass.) for 24 h and 10 μg/mL trastuzumab (Roche, Basel, Switzerland) for 1 or 24 h prior to addition of radiotracer. […]
Cells were washed with PBS, trypsinized, neutralized with complete medium and centrifuged. […] The radioactivity of 100 μL lysate was counted on a Packard Cobra II gamma counter (Perkin Elmer). Radioactivity was normalized to applied radioactivity and protein content, which was determined for each sample by BCA assay (Pierce, Rockford, Ill.).

For “trastuzumab: HER2-targeted antibody (Herceptin, Genentech)”, the “reduction of Ki” value (SKOV-3 xenografts; 7 days of continuous trastuzumab treatment) was 24%, the “effect on tumor tracer uptake/retention” value (SKOV-3 xenografts; trastuzumab 50 mg/kg i.p. 2 h prior to scan, then two doses of 25 mg/kg, re-imaged after 7 days) was “not influenced; also recorded: did not adversely affect tumor tracer retention” and the “reduction of tracer binding compared to drug-naïve controls” value (SKOV-3 cells; 10 μg/mL trastuzumab for 24 h prior to uptake experiment) was 32±11%. The “effect on tracer binding” value (SKOV-3 cells; 10 μg/mL trastuzumab pre-treatment for 1 h) was “did not alter tracer binding”.
